These are literature values, as cited in publication PMC4281022 (Journal of medicinal chemistry, 2013).

The chains behind the UniProt entries cited, without tags or fusion partners.
UniProt P47746, whole entry: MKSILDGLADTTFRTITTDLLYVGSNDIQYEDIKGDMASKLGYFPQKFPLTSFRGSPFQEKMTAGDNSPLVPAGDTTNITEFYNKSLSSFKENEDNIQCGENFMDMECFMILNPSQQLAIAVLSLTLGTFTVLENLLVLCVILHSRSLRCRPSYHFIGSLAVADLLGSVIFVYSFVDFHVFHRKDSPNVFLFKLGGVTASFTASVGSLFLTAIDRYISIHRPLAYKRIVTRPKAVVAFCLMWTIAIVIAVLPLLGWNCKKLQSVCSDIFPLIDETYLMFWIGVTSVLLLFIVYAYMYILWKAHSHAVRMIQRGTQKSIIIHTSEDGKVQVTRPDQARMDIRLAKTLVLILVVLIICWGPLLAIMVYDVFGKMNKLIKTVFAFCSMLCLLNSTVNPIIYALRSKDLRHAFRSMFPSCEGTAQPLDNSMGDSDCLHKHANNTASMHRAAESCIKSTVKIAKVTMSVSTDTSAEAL

This series addresses CB1 receptor (Mus musculus, UniProt P47746). The following applies: cited from earlier work.

Consider `Cc1c(C(=O)NN2CCCCC2)nn(-c2ccc(Cl)cc2Cl)c1-c1ccc(Cl)cc1` [rimonabant], for which the “Effect of co-administration on tetrad effects of a CB1 agonist” value is “blocked”.
